Literature values in paper PMC4250310 (Bioorganic & medicinal chemistry letters, 2014).

Tested on: ALS
Settings: ALS patients; cited from earlier work

For `Nc1nc2ccc(OC(F)(F)F)cc2s1` [Riluzole], the “extension of median survival” value is given as 2–3 months.
